Measurements: patent US20050288222A1, “Methods for enhancing the bioavailability of a drug” (priority 2000, published 2005)

The chains behind the UniProt entries cited, without tags or fusion partners. Residues count along the entry.
UniProt P05067, 672-711 limits assumed: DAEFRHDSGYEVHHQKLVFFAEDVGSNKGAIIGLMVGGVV

Target: B-amyloid (Homo sapiens, UniProt P05067)
Assay: KD of potent B-amyloid aggregation inhibitors (Table II)
Type: binding

With CC(C)C[C@H](C(=O)N[C@@H](C(=O)N[C@H](Cc1ccccc1)C(=O)N[C@H](Cc1ccccc1)C(=O)N[C@H](CC(C)C)C(N)=O)C(C)C)N(C)C [PPI-1007, (CH3)2-lvffl-NH2] as the compound, how does the Kd read?
Its Kd is 0.86 nM.

How did the Kd turn out when CC(C)C[C@@H](N)C(=O)N[C@@H](C(=O)N[C@H](Cc1ccccc1)C(=O)NNC(=O)[C@@H](Cc1ccccc1)NC(=O)[C@H](NC(=O)[C@H](N)CC(C)C)C(C)C)C(C)C [PPI-1125, (H-lvf-NH-)2] was run?
Its Kd is 1.27 nM.
